Protein sequences, listed by entry. Tags and fused reporters are not part of them.
UniProt P25103, whole entry: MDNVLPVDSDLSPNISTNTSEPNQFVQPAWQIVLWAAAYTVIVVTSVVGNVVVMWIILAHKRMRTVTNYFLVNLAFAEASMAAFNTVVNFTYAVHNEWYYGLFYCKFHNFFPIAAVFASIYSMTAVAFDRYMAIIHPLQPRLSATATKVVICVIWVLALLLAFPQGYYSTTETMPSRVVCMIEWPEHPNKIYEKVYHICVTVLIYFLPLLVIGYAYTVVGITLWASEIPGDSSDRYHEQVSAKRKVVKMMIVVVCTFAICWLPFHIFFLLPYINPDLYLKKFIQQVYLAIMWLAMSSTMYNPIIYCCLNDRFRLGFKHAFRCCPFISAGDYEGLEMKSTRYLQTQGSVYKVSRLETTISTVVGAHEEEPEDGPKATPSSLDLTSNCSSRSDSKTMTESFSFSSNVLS

According to ChEMBL document CHEMBL1129787, “Synthesis of potent cyclic hexapeptide NK-1 antagonists. Use of a minilibrary in transforming a peptidal somatostatin receptor ligand into an NK-1 receptor ligand via a polyvalent peptidomimetic” (J Med Chem, 1996):

How the values were obtained:
Somatostatin receptor = assay: Ability to inhibit binding of [3I]-CGP 23996 to somatostatin receptor on membranes from AtT-20 cells; type: cell-based; details: att20
Substance-P receptor = Substance-P receptor (Homo sapiens, UniProt P25103); assay: Binding affinity towards Tachykinin receptor 1
Procedure, shortened: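 NK-1 receptor inhibition assay. IC50 is reported in nM as the mean ± SD.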

- IC50 (Somatostatin receptor): 5 µM
- IC50 (Substance-P receptor): 120 µM
Structure (SMILES): NCCCCCOC[C@H]1O[C@@H](OCCc2c[nH]c3ccccc23)[C@H](OCc2ccccc2)[C@@H](OCc2ccccc2)[C@@H]1OCc1ccccc1
